The structures appear in SMILES notation.

The assay in a line: Selectivity ratio IC50 for human 20s proteasome beta5 subunit mediated chymotrypsin-like activity to IC50 for Plasmodium falciparum SUB1.

`CC(=O)N[C@H](C(=O)N[C@H](C(=O)NCC(=O)N[C@@H](C)B(O)O)[C@@H](C)O)C1CCCC1`: the Ratio IC50 amounted to 3.8.
The result for `CC(=O)N[C@H](C(=O)N[C@H](C(=O)NCC(=O)N[C@@H](C)B(O)O)C(C)C)C1CCCC1` reads 5.7.

Source of the values: ChEMBL document CHEMBL5523765, “Peptidic Boronic Acid Plasmodium falciparum SUB1 Inhibitors with Improved Selectivity over Human Proteasome” (J Med Chem, 2024).
